# Binding of CDR-mutated scFvs to a peptide of the spike HR2 region

Values reported by Engelhart et al. 2022, doi:10.1038/s41597-022-01779-4 (FLAb copy).

Binding partner: SARS-CoV-2 spike HR2 peptide, sequence PDVDLGDISGINAS.

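The starting antibody came from a phage panning campaign against this peptide. Library AAYL51 holds single substitutions and randomly drawn double and triple substitutions in the CDRs. Affinity was read by AlphaSeq, a pooled yeast mating assay with surface-displayed partners. Mating (16 h, 30 °C) was followed by selection of diploids and sequencing of their barcodes. Each replicate has its own calibration line, from reference interactions of the BCL2 family. Mating was done three times.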

Parent: Ab-91, a human scFv built as VL, a 15-residue (Gly4Ser)3 linker, VH. Only the CDRs of the heavy chain vary.
VL: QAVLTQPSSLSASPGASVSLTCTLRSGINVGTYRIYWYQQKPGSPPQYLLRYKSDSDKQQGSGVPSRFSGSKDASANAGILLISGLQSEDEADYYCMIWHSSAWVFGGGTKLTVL
VH: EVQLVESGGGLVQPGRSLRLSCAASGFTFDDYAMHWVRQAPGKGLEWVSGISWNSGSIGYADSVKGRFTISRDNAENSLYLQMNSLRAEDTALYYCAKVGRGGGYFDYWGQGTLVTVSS

Each variant is given by its three heavy chain CDRs, as the data file delimits them; those of the parent are GFTFDDYAMH, GISWNSGSIGYADSVK, VGRGGGYFDY. This list gathers variants with a substitution at S63 (VH, numbered from residue 1). Kd is apparent (estimated from mating counts) and averaged on the log scale over replicates with a signal. Smaller is tighter. A pair that was not seen in any replicate is written "nd"; this usually means weak binding, but a binder can also be missed. Background: pairings of library AAYL51 with three empty control strains gave a value in 21% of cases (median 34 µM, 5th percentile 1.8 µM). Values in that range, when seen in few replicates, are hard to tell from nonspecific mating. For each scFv, signals with the empty controls are counted beside the result.

With GFTFDDYAMH / GIPWNSGSIGYADWVK / VGRGGGYFDN the result was 42 µM (1 of 3 replicates; controls 3 of 9). The variant GFTFDDDAMH / GISWHSGSIGYADVVK / VGRGGGYFDY showed 17 µM (3 of 3 replicates; controls 4 of 9). The variant GFVFDDYAMH / GISWNSGPIGYADHVK / VGRGGGYFDY gave 150 µM (3 of 3 replicates; controls 4 of 9). With GFTFDDYAMH / GISWNSGSIGYADCVK / VGRGGWYFWY the result was nd (0 of 3 replicates; controls 0 of 9). The variant GFTFDDYAMH / GISWNSGTIGYADIVK / VGRGGDYFDY gave 90 µM (3 of 3 replicates; controls 5 of 9). The variant GFTFDDYAIH / GISWNSGCIGYADLVK / VGRGGGYFDY gave 25 µM (1 of 3 replicates; controls 0 of 9). The variant GFTFDDYAMH / GISWNSGRIGYADYVK / VWRGGGYFDY showed nd (0 of 3 replicates; controls 1 of 9). The variant GFTFDDYAMH / GISWNSGSIGYADFVK / VGRGGQPFDY showed nd (0 of 3 replicates; controls 0 of 9).

The variant GFTFDDEAMH / GISWNSGSIGYADEVK / VGRDGGYFDY gave 100 µM (2 of 3 replicates; controls 4 of 9). For GFTFDDYAMH / GISWNSGSIGYADCVK / VGRGDSYFDY, the assay gave 14 µM (1 of 3 replicates; controls 4 of 9). With GFTFDDYAMH / GISWNSGSIGYADCKK / VGRGCGYFDY the result was 8.9 µM (1 of 3 replicates; controls 1 of 9). The variant GFQFDDYAMH / GISWNSGSIGYADLVK / VGRGGGYFDY showed 1.7 µM (1 of 3 replicates; controls 2 of 9). The variant GFTFDDYAMH / GRSWNSGSIGYADCVL / VGRGGGYFDY gave nd (0 of 3 replicates; controls 0 of 9). The variant GFTCDDEAMH / GISWNSGSIGYADYVK / VGRGGGYFDY gave nd (0 of 3 replicates; controls 0 of 9). The variant GFTFDDYAMH / GISWNSGSIGYIDWVK / VRRGGGYFDY gave nd (0 of 3 replicates; controls 4 of 9). For GFTSDDYAMH / GISWNSGSIGYADCVK / VGRGGGYFDQ, the assay gave 13 µM (1 of 3 replicates; controls 1 of 9).

The variant GATFDDYAMQ / GISWNSGSIGYADKVK / VGRGGGYFDY gave nd (0 of 3 replicates; controls 0 of 9). With GFTFDDYAMH / GISLNSGSIGYADYVK / EGRGGGYFDY the result was nd (0 of 3 replicates; controls 0 of 9). The variant GFTFDDYAMH / GISYNTGSIGYADDVK / VGRGGGYFDY showed 18 nM (3 of 3 replicates; controls 5 of 9). For GFTFDDYAMN / GISWNSGSIGHADMVK / VGRGGGYFDY, the assay gave 160 µM (3 of 3 replicates; controls 6 of 9). The variant GFTFDDYAMH / TISWNSGSIGYADHVK / VGFGGGYFDY gave nd (0 of 3 replicates; controls 0 of 9). The variant GFTFDDYAMH / GISWNSGSIGYADEVK / VGRGMGYFDY gave nd (0 of 3 replicates; controls 0 of 9). With GFTFDDYAMH / GISWNSGSIGYADVVK / VGRGGMYFDY the result was 690 µM (1 of 3 replicates; controls 1 of 9). For GFTFDDYAMH / GISWNSGSIGYADEVK / VCRGGGYFDE, the assay gave 28 µM (1 of 3 replicates; controls 6 of 9).

With GFTFDDYATH / GISWNSGSIGYADYRK / VGRGGGYFDY the result was 16 µM (1 of 3 replicates; controls 0 of 9). The variant GFTFDDYAMH / GISWNSGSIPYADVVK / VGRGGGYFPY gave 21 µM (1 of 3 replicates; controls 3 of 9). The variant GFTKDDYAMH / GISWNSGSIGYADKRK / VGRGGGYFDY showed 130 µM (3 of 3 replicates; controls 3 of 9). The variant GFTFDDFAMH / GISWNSGLIGYADGVK / VGRGGGYFDY gave nd (0 of 3 replicates; controls 0 of 9). With GFTFDDYAMH / FISWNSGSIMYADYVK / VGRGGGYFDY the result was 770 µM (3 of 3 replicates; controls 3 of 9). With GFTFRDYAMH / GISWNSGSIGYADQVK / VGRGGGYFDY the result was 16 µM (2 of 3 replicates; controls 4 of 9). The variant GFTFDDYAMH / GILWNSGSIGYADQVK / VGRGSGYFDY showed nd (0 of 3 replicates; controls 3 of 9). The variant GFTLLDYAMH / GISWNSGSIGYADWVK / VGRGGGYFDY gave 6.8 µM (3 of 3 replicates; controls 3 of 9).

With GFTFSDYAMH / GISWNSGSIGYADAYK / VGRGGGYFDY the result was 4.0 µM (3 of 3 replicates; controls 1 of 9). The variant GFTFDDYAMH / GINWNSGSIGYADMVK / GGRGGGYFDY showed nd (0 of 3 replicates; controls 0 of 9). The variant GFTFDDYAMH / GISWNSGSIGYADDVK / GGRGGRYFDY gave 60 µM (1 of 3 replicates; controls 1 of 9). With GFTFDDYAMH / GISWNSGSIDYADYEK / VGRGGGYFDY the result was nd (0 of 3 replicates; controls 0 of 9). The variant GFTFDDYAMH / GISWNTGSIGYADRVK / VGRGGGYFDK showed 3.0 µM (3 of 3 replicates; controls 0 of 9). The variant GFTFNDYAMH / GISWNSGSIGYADNVK / VGRGGGYNDY showed nd (0 of 3 replicates; controls 0 of 9). The variant GFTFDDYAMH / GITWNSGSIGYADMVK / VGRGGGYFDY showed 3.3 µM (3 of 3 replicates; controls 2 of 9). With GFTFHDYAMH / GTSWNSGSIGYADIVK / VGRGGGYFDY the result was 670 nM (2 of 3 replicates; controls 1 of 9).

With GFTFDDYAMH / GIQWNSGSIRYADLVK / VGRGGGYFDY the result was 65 µM (1 of 3 replicates; controls 5 of 9). The variant GFTFDDYAMS / GIHWNSGSIGYADIVK / VGRGGGYFDY gave nd (0 of 3 replicates; controls 0 of 9). For GFTFDDYAMH / GISWVSGSIRYADVVK / VGRGGGYFDY, the assay gave nd (0 of 3 replicates; controls 1 of 9). The variant GFTFDHYAMH / GISWNSGSIFYADIVK / VGRGGGYFDY showed nd (0 of 3 replicates; controls 1 of 9).

The last 2 entries again:

GFTFDDYAMH / GISWVSGSIRYADVVK / VGRGGGYFDY: nd (0 of 3 replicates; controls 1 of 9).
GFTFDHYAMH / GISWNSGSIFYADIVK / VGRGGGYFDY: nd (0 of 3 replicates; controls 1 of 9).